Experimental data from paper PMC5080452 (Bioorganic & Medicinal Chemistry, 2016).

Assay: PAMPA-BBB brain permeability assay
Details: class from PAMPA-BBB Pe

**Q.** Which BBB permeation prediction does the source give for `CC1=C[C@@H]2Cc3nc4cc(Cl)ccc4c(NCCCCCCCCCCC#N)c3[C@H](C1)C2` here?
**A.** Its BBB permeation prediction is “CNS+ (compounds of high BBB permeation (CNS+): Pe (10^−6 cm s^−1) > 5.17)”.
